Measured values published in article PMC8123931 (Nature chemical biology, 2020).

Tested on: RTK bait (MET, FGFR4, AXL, ALK, EGFR)

SMILES: C[C@@H](Oc1cc(-c2cnn(C3CCNCC3)c2)cnc1N)c1c(Cl)ccc(F)c1Cl [crizotinib]
- bait expression: some reduction in bait expression
